Results published in patent US20150218538A1 (UNIVERSITY OF NORTH CAROLINA AT CHAPEL HILL, published 2015).

Sequences of proteins named here, by UniProt entry; tags and fusion partners are left off. A change or cut given only in a name is not applied to a line headed by its entry.
UniProt Q01970: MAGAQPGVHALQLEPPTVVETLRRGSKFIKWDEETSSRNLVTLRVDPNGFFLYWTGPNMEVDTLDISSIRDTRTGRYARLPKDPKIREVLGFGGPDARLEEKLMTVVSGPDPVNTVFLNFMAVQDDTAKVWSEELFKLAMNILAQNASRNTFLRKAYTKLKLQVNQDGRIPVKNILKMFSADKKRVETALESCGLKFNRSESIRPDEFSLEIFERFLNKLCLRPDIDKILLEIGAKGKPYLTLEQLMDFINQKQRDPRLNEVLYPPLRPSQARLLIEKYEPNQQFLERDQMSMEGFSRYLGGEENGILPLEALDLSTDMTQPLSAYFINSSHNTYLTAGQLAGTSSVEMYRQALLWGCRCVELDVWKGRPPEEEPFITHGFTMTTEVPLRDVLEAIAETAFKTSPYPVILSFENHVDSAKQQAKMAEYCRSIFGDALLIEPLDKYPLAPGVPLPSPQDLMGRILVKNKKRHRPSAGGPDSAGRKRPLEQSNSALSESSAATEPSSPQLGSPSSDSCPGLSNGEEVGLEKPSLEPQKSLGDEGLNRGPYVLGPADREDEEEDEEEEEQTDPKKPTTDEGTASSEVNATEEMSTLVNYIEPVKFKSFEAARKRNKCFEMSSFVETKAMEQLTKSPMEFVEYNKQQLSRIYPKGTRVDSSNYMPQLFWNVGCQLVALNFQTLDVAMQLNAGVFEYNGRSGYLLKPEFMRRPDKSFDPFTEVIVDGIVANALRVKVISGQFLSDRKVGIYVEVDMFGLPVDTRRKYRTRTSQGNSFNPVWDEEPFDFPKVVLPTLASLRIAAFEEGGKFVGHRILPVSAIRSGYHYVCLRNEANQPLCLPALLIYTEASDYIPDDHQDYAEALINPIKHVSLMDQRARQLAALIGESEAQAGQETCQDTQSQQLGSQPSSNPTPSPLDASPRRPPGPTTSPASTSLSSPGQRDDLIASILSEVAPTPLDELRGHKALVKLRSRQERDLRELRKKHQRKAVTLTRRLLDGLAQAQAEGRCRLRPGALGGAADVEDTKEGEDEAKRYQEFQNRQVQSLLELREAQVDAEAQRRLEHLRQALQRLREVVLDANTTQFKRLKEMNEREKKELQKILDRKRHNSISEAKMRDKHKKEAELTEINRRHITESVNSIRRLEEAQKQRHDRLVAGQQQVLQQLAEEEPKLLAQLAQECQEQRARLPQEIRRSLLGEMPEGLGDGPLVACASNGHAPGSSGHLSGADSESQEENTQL

Columns and labels:
[1] = molecular target: T1, Gαq activated with aluminum fluoride (Gαq-GDP plus aluminum fluoride) (UniProt P50148 35-359); assay: fluorescence polarization; Gαq activated with aluminum fluoride
T1 construct: Purified protein in the active state (GDP + AlF4); PDB 3OHM is cited only for the structure; also called active Gαq
T1 sequence (looked up): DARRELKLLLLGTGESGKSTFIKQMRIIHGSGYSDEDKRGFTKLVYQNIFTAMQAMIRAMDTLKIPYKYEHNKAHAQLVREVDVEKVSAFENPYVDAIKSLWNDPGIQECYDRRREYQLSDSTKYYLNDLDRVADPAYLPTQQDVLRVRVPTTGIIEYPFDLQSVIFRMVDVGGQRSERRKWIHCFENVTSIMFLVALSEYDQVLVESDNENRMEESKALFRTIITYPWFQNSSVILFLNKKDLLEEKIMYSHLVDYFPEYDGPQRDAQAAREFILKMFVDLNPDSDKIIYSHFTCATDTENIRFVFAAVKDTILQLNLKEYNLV

[2] = molecular target: chimeric form of Gαq (Gαq/i), activated with aluminum fluoride; assay: fluorescence polarization; Gαq/i with aluminum fluoride
[3] = molecular target: T1, Gαq activated with aluminum fluoride …; assay: cell-based or functional assay

B1: TAMRA-27-mer (TAMRA-labeled 27-mer, residues 852-878 of PLC-β3 with two mutations Ile860A+M869Nle) (peptide, UniProt Q01970 852-878, looked up)
peptide: HQDYAEALANPIKHVSLMDQRARQLAA
modifications: norleucine (Nle) in place of Met 869 (M869Nle); labeled with TAMRA (5-carboxytetramethylrhodamine), position of the label not stated
notes: range 852-878
B1 was tested, and the Kd [1] was about 400 nM, the Kd [2] was 1600 nM and the “phospholipase activity of PLC-β3 activated by Gαq in lipid vesicles, as a function of TAMRA-27-mer concentration (IC50)” value [3] was about 1000 nM.
